Results reported in ChEMBL document CHEMBL1132729.

Assays:
[1] = target: T1, Lipoprotein lipase (Bos taurus) (UniProt P11151); assay: Percent inhibition of compound against Lipoprotein lipase(LPL) at 10 uM was evaluated
T1 sequence (whole entry): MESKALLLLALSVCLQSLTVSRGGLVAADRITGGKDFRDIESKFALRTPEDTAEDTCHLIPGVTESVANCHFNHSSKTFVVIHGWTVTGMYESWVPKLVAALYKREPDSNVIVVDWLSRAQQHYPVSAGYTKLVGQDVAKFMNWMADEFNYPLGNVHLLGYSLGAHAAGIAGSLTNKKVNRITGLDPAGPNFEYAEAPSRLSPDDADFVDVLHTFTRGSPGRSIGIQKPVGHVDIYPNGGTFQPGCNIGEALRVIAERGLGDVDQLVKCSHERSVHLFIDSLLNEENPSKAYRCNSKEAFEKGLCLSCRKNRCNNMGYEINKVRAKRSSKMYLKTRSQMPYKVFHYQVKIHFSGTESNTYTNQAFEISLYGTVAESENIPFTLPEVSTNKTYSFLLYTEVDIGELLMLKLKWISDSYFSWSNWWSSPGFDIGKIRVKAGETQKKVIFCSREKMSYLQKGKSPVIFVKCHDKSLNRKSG

[2] = target: T1, Lipoprotein lipase (Bos taurus); assay: Percent inhibition of compound against Lipoprotein lipase(LPL) at 3h was evaluated; conditions: concentration not given here

`CCCCCCS(=O)(=O)F` showed an inhibition [1] of 50% and an inhibition [2] of 60%.
